# Experimental data: patent publication US10377698B2, “Diphenethylamine derivatives which are inter alia useful as analgesics and method for their production” (UNIVERSITY OF INNSBRUCK, priority 2015, dated 2019)
# Sequences of proteins named here, by UniProt entry; tags and fusion partners are left off. A change or cut given only in a name is not applied to a line headed by its entry.
# UniProt P41145: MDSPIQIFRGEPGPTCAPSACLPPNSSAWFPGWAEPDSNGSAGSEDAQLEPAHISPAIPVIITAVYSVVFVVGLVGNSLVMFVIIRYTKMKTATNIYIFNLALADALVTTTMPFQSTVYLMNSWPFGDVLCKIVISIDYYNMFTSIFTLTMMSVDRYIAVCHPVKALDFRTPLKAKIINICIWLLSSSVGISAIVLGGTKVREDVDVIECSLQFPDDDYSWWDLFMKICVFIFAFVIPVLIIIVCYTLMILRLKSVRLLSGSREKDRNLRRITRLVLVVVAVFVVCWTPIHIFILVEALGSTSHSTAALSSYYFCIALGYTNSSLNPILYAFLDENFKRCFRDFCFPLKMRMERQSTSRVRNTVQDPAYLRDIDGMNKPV
# Assays:
# [1] = target: T1, KOR (Homo sapiens, UniProt P41145); experiment: KOR-mediated G protein activation, [35S]GTPγS binding, CHO-hKOR cell membranes; format: biochemical; conditions: % of maximum stimulation with respect to reference KOR agonist U69,593
# [2] = target: T1, KOR; experiment: KOR-mediated β-arrestin2 recruitment, DiscoveRx PathHunter assay, U2OS-hMOR-β-arrestin2 cells; format: cell-based
# [3] = Acetic acid-induced writhing test in mice after s.c. administration; format: in vivo; conditions: 30 min after s.c. administration
Compound,[35S]GTPγS binding KOR Emax [1] [%],"Bias factor ([2]; RAi(β-arrestin2)/RAi(G protein), reference ligand U69,593)","β-arrestin2 recruitment assay Emax ([2]; relative to maximum stimulation of reference KOR agonist U69,593) [%]",ED50 writhing test [3]
CN(C(=O)Cc1ccccc1)[C@H]1CC[C@@]2(CCCO2)C[C@@H]1N1CCCC1,100,1,100,–
CN(C(=O)Cc1ccc(Cl)c(Cl)c1)[C@@H]1CCCC[C@H]1N1CCCC1,93.0,–,–,"1.54 mg/kg, s.c."
